Values of other authors as cited in article PMC6825517 (Journal of medicinal chemistry, 2019).

Tested on: 468 kinases
Conditions: at 3 μM; cited from earlier work

CCN(CC)CCNC(=O)c1c(C)[nH]c(/C=C2\C(=O)Nc3ccc(F)cc32)c1C [Sunitinib]
S(35) score: 0.57
